The chains behind the UniProt entries cited, without tags or fusion partners. Where a name states a change or a piece, a line headed by the entry shows the natural chain unless it says otherwise.
UniProt P41146: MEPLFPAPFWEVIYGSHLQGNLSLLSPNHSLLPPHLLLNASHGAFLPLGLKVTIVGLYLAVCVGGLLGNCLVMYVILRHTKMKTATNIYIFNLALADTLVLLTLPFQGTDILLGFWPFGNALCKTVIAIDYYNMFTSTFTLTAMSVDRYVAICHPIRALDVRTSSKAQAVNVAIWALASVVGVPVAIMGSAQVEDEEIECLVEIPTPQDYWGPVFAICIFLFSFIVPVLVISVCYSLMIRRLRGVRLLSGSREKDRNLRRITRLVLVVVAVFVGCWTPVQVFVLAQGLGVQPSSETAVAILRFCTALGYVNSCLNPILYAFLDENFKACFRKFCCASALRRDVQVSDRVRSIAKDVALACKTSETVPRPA

According to ChEMBL document CHEMBL1146689, “The design and synthesis of a novel quinolizidine template for potent opioid and opioid receptor-like (ORL1, NOP) receptor ligands” (2004):

Target: Nociceptin receptor (Homo sapiens, UniProt P41146)
Experiment: Binding affinity for human nociceptin (NOP) receptor using [3H]N/OFQ as radioligand transfected into CHO cells

CC(C)C1CCC(N2CCC3(CC2)C(c2ccccc2)C[C@H]2CN(C)C[C@H]23)CC1 (stereo partly specified)
Ki: 0.49 nM
